Values of other authors in PubChem BioAssay AID1811 (Shanghai Institute of Organic Chemistry, 2009).
The other results are listed elsewhere or left out. Activity calls are given as the source filed them.

Test system: cell division protein kinase 2
Assay: PubChem AID 1811
Conditions: PDB complex binding affinities from literature

outcome, active:
Clc1cccc(Nc2nc(OCC3CCCCC3)c3[nH]cnc3n2)c1
CN(C)C[C@@H](O)COc1ccc(Nc2ncc(Br)c(Nc3ccccc3)n2)cc1
CC(=O)N[C@@H](CCCN=C(N)N)C(=O)N[C@@H](CCCN=C(N)N)C(=O)N[C@@H](CC(C)C)C(=O)N[C@@H](CC(N)=O)C(=O)N[C@@H](Cc1cccc(Cl)c1)C(N)=O
CC(C)C[C@H](NC(=O)[C@H](CCCN=C(N)N)NC(=O)[C@@H](N)CCCN=C(N)N)C(=O)N[C@@H](CC(N)=O)C(=O)N[C@@H](Cc1ccc(F)cc1)C(N)=O
NS(=O)(=O)c1cccc(Nc2nc(OCC3CCCCC3)c3[nH]cnc3n2)c1
Cc1nc(C)c(-c2ccnc(N)n2)s1
Nc1n[nH]c(N)c1N=Nc1ccc(O)cc1
CC(=O)N[C@@H](CCCN=C(N)N)C(=O)N[C@H]1CCCCNC(=O)CNC(=O)[C@H](Cc2ccccc2)NC(=O)[C@H](CC(C)C)NC1=O
